Our source for the IC50 values is BindingDB's records for doi:10.1021/jm9601967 (F. Hoffmann-La Roche, 1996).

A short description of the experiment: Compound was tested for inhibition of Penicillin-binding protein 2 from Streptococcus pneumoniae.

Broadly, the IC50 is the concentration that inhibits the measured activity by half. Read a high IC50 as weaker potency in that assay. On to `C[C@]1(/C=C/C#N)[C@H](C(=O)O)N2C(=O)C[C@H]2S1(=O)=O` [Sodium; (2S,3R,5R)-3-((Z)-2-cyano-vinyl)-3-methyl-4,4,7-trioxo-4lambda*6*-thia-1-aza-bicyclo[3.2.0]heptane-2-carboxylate], for which the IC50 was 5 µM.
